Values joined by “and” are separate entries in the source; they are usually repeats but may differ in a detail not shown here. Equal values may be shown once.
Test system: rhBMP-2 induced bone formation
Test: Rat ectopic model: subcutaneous rhBMP-2/collagen sponge implants with contrast media, graded by palpation, radiography and histology
Type: in vivo, athymic rat
Design: key to RADIOGRAPHY GRADE: 0: No bone detected; 1+: Some bone; 2+: Moderate bone detected; 3+: Good bone detected; 4+: Excellent bone detected; 5+: Excellent bone detected (larger piece); key to HISTOLOGY GRADE: 0: no bone or marrow; 0.5: only trace amounts of bone; 1: bone and marrow, approximately 20% of implant area; 2: bone and marrow, approximately 40% of implant area; 3: bone and marrow, approximately 60% of implant area; 4: bone and marrow, approximately 80% of implant area; 5: bone and marrow, approximately 100% of implant area; key to PALPATION GRADE: Hard Bone; Soft; Partially Resorbed; Completely Resorbed
Settings: 28 days
Experimental: Initial in vitro and cadaver tests verified the potential of using contrast media to visualize the INFUSE® Bone Graft implant on fluoroscopic radiographic images. Applicants evaluated the rehydration of the lyophilized rhBMP-2 powder with contrast media instead of the recommended sterile water. A reconstituted solution that consisted of 97% contrast media was applied to a 0.5 cc collagen sponge to produce a graft with a rhBMP-2 concentration of 0.1 mg/cc and implanted subcutaneously on the thoracic cavity of athymic rats. At four weeks, the rats were euthanized and the implants removed. The explants were graded by manual palpation, radiography, and histology.
This aspect of the invention was designed to evaluate the ability of rhBMP-2 to induce de novo bone in the presence of various contrast media in the rat ectopic model. 200 μL of a 0.1 mg/ml rhBMP-2 solution was applied to 0.5 cc collagen sponge discs (Kensey Nash, Exton, Pa.). After a 15-minute soak time, the rhBMP-2/collagen was implanted into a subcutaneous (SC) tissue pocket above the rib cage muscle of an athymic rat. There were four implants per rat. Contrast media represented 97% of the rhBMP-2 fluid suspension applied to the collagen disc. The rhBMP-2 buffer served as a control test fluid. The three commercially available contrast media used in this study were Conray®, Optiray® (Mallinckrodt Imaging Tyco Healthcare, Hazelwood, Mo.), and Omniscan™ (GE Healthcare, Princeton, N.J.). The study protocol was evaluated and approved by the Institutional Animal Care and Use Committee of the Atlanta Veterans Affairs Medical Center.
A 4.0 mg/ml rhBMP-2 solution was made by withdrawing 1.8 ml of sterile WFI and reconstituting a 7.2 mg vial of lyophilized rhBMP-2 protein powder to create a stock solution. This solution was diluted 1:34 (v/v) with contrast media to reach the final rhBMP-2 concentration (0.1 mg/cc) used in the rat ectopic model with ACS. (Reddi A. H., 69 Proc Natl Acad Sci USA, 1601 (1972); Urist, M. R., 150 Science, 893 (1965); Wozney J. M., et al., 242 Science, 1528 (1988)). 7 μl of 4.0 mg/ml rhBMP-2 solution was mixed with 233 μL of Conray®, Omniscan™, or Optiray®. 233 μL of the rhBMP-2 buffer served to dilute the rhBMP-2 control sample.
The implants were set-up in 6-well plates clearly labeled with the implant and animal identification number. A 0.5 cc collagen disc was placed in a single well. 200 μL of 0.1 mg/cc rhBMP-2 in 97% contrast media/3% sterile water was applied to the collagen disc 15 minutes prior to implantation.
Animals were weighed, anesthetized, and surgically prepared prior to implantation. Preparation for implantation included shaving the abdomen and thorax, and scrubbing these areas with liberal amounts of ChlorohexiDerm™ scrub (DVM Pharmaceuticals, Miami, Fla.). The excess scrub was removed with gauze soaked in ChlorohexiDerm. All animals received four SC implants on the ventral thoracic region in the sterile environment of a surgical suite, and remained under isoflurane anesthesia for the duration of the procedure.
After placing the animal in dorsal recumbency, four incisions (˜5 mm in length) were made in each quadrant of the thoracic region (upper right, upper left, lower left, and lower right). The closed tip of the scissors was inserted and spread apart within the SC space. This created a space sufficient to accommodate the implant samples, which were placed with forceps in the SC tissue pocket above the rib cage muscle. Each test implant was placed in each of the four locations listed above in a clockwise rotation. After the implants were placed, the skin around the wound was closed with resorbable suture. All animals were given a SC injection of Nacel (0.8 mg/kg) prior to being placed on their sides in clean, dry cages and observed until they regained their righting reflex.
Animals on study were fed ad libitum and observed daily throughout the study. […]

[1] = athymic rat SC implant, 0.1 mg/mL rhBMP-2, 97% contrast media, collagen sponge, one value per animal (1394-1397)
[2] = semi-quantitative score 0-5, rat SC implants

B1: rhBMP-2 alone: Recombinant human Bone Morphogenetic Protein-2, 0.1 mg/mL, diluted with rhBMP-2 buffer, on collagen sponge; control implant (protein, UniProt P12643 283-396, looked up)
Bone morphogenetic protein 2: QAKHKQRKRLKSSCKRHPLYVDFSDVGWNDWIVAPPGYHAFYCHGECPFPLADHLNSTNHAIVQTLVNSVNSKIPKACCVPTELSAISMLYLDENEKVVLKNYQDMVVEGCGCR
[1]
  HISTOLOGY GRADE: 3 (2×) and 4 and 5
  PALPATION GRADE: Hard Bone
  RADIOGRAPHY GRADE: 4+ (2×) and 5+ (2×)
Indicated by the mean histology score, rat SC implants
  cross-sectional area of the implant consisting of bone and marrow: roughly 80%
Out of 5, rat SC implants, Conray: three implants that were identified
  mean radiographic (Faxitron) score: 4.5
[2]
  mean bone induction score (histology): 3.8
  range of bone induction score (histology): 3-5

— patent US7598219B2, “Implants comprising an osteoinductive factor and a contrast agent compatible therewith” (Warsaw Orthopedic, Inc., priority 2006, dated 2009)
